Data on one compound can be found in PMC8065475, “Structure and Dynamics of an Archeal Monoglyceride Lipase from Palaeococcus ferrophilus as Revealed by Crystallography and In Silico Analysis” (2021).

Amino acid sequences for entries named in this document (tags omitted). Residues count along the entry.
UniProt A0A6I8WFT7, 1-260 limits assumed: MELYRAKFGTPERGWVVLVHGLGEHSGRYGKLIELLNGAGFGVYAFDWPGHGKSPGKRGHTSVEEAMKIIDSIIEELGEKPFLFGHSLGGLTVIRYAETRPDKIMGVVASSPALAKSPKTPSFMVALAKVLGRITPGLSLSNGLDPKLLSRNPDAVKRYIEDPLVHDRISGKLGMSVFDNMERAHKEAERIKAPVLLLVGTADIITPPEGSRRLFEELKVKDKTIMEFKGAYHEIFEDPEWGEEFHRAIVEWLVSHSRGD

For orientation: pIC50 means −log10 of the IC50, conventionally taken in molar units. Lower therefore signals a high IC50.

Molecules are shown by their SMILES.

In experiment [1] the target is T1, PFL (Palaeococcus ferrophilus lipase / monoglyceride lipase, previously annotated as lysophospholipase) (Palaeococcus ferrophilus, UniProt A0A6I8WFT7). Put plainly: p-nitrophenyl ester hydrolysis, colorimetric. Particulars: substrate p-nitrophenyl acetate 1 mM; Hepes 100 mM pH 8; 30 or 70 °C (not stated which); covalent.
The target in experiment [2] is T1, PFL (Palaeococcus ferrophilus lipase / monoglyceride lipase, previously annotated as lysophospholipase). Put plainly: thermofluor (SYPRO Orange). Particulars: MAFP 50 µM, LDAO 0.1%, Hepes 100 mM pH 8; absolute Tm, not a shift; covalent. From the text:
thermofluor (SYPRO Orange) on PFL (Palaeococcus ferrophilus lipase / monoglyceride lipase, previously annotated as lysophospholipase)
Background: Differential scanning fluorimetry follows unfolding on heating by fluorescence.

`CCCCC/C=C\C/C=C\C/C=C\C/C=C\CCCCP(=O)(F)OC` (centres unmarked) gave a negative-log IC50 (pIC50) in experiment [1] of 7.82. Also, the MAFP in experiment [2] was found to be 83.5 ± 1.3 °C.
